Reference: patent US7923016

Target: wild-type CXCL12-α (UniProt P48061)
Assay: self-association (monomer-dimer); pulsed-field gradient NMR translational diffusion versus concentration, 20 mM sodium phosphate pH 7.4

Kd: 120 µM
Substance: wild-type CXCL12-α (from UniProt P48061 22-89) (ligand)
